The results in this text go back to US20100209959A1, “TUMOUR-CELL-FIXING CELLS” (UNIVERSITE PIERRE ET MARIE CURIE-PARIS VI, priority 2007, published 2010).

The assay concerns MDR1 protein. Kind of assay: Transfer of MDR1 protein from hospicells to OVCAR3 cells (flow cytometry). Type of assay: cell-based. The conditions noted are these: in the presence of the protein translation inhibitor. The method, then: In addition, the expression of the MDR1 protein by OVCAR3 cells, cultivated in the presence or in the absence of hospicells, was determined by flow cytometry.
The results obtained show the presence of the MDR1 protein by the OVCAR3 cells. Consequently, the transfer of MDR proteins between the hospicells and the tumour cells is possible.

For `C[C@@H]1C[C@@H]([C@H](O)CC2CC(=O)NC(=O)C2)C(=O)[C@@H](C)C1` [cycloheximidine A], the “transfer of MDR proteins between hospicells and tumour cells” value is “also takes place”.
